The assay addresses Glutamate receptor ionotropic, NMDA 1 (Rattus norvegicus, UniProt P35439).

1 compound from BindingDB's records for doi:10.1016/0028-3908(95)00017-z (Merz, 1995) can be followed below.

Values joined by “and” are separate entries in the source; they are usually repeats but may differ in a detail not shown here. Equal entries are not always repeated.

With `CC12CC3CC(C)(C1)CC(N)(C3)C2`, the inhibition constant (Ki) (as a rule, the dissociation constant of the complex between target and ligand, obtained from inhibition or displacement) is 690 nM and 433 nM and 1780 nM and 700 nM and 1730 nM and 1370 nM and 1320 nM and 2420 nM.
